# Data published in PMC8409973, “Synthesis, antiproliferative and antitrypanosomal activities, and DNA binding of novel 6-amidino-2-arylbenzothiazoles” (Journal of Enzyme Inhibition and Medicinal Chemistry, 2021).
# System: L6 cells (a rat myoblast line)
# Experiment: L6 cell proliferation (cytotoxicity, resazurin)
# Assay type: cell-based
row,Structure (SMILES),SI IC50 (L6/Tb)
1,"CS(=O)(=O)O.Clc1ccc(-n2cc(-c3nc4ccc(C5=NCCCN5)cc4s3)nn2)cc1 [15b, 6-(3,4,5,6-Tetrahydropyrimidin-1-ium-2-yl)-2-[1-(4-chlorophenyl)-1H-1,2,3-triazole-4-yl]benzothiazole methanesulfonate]",6.9
2,"CS(=O)(=O)O.Clc1ccc(-n2cc(COc3nc4ccc(C5=NCCCN5)cc4s3)nn2)cc1 [12b, 6-(3,4,5,6-Tetrahydropyrimidin-1-ium-2-yl)-2-[(1-(4-Chlorophenyl)-1H-1,2,3-triazol-4-yl]methoxy)benzothiazole methanesulfonate]",2.5
3,N=C(N)c1ccc2nc(-c3ccc(OCc4cn(-c5ccc(Cl)cc5)nn4)cc3)sc2c1 [10b],2.7
